{
  "source": "patent US20220073553A1",
  "about": "“METHOD FOR EXTRACTING HIGH-PURITY POLYDEOXYRIBONUCLEOTIDE FROM SALMON TESTES” (Bio Medi pharm Co. Ltd., priority 2020, published 2022)",
  "tested_on": "sperm from regions of salmon testes",
  "assay": "Motility of sperm from regions of salmon testes after hormone treatment",
  "assay_type": "cell-based",
  "conditions": "for Motility after treatment (%): hCG at 100 IU/2 g testis",
  "experimental": "The immature testicular regions A, B, and C are ground and diluted with an artificial seminal plasma. The grinding is performed by the following procedure. First, the testes are cut into small pieces with scissors such that the membranes surrounding the spermatids of the testes are peeled off. Thereafter, the exposed testicular regions A, B, and C are gently crushed with gloved hands. hCG is an abbreviation for human chorionic gonadotropin. The dilution is treated with hCG at a concentration of 25-200 IU/g to induce artificial sexual maturation of the testicular cells to sperm. Specifically, the dilution is treated with the predetermined amount of hCG under slow stirring with a low-speed impeller agitator. Here, care should be taken because a high speed of the impeller causes cell disruption, increasing the possibility that impurities may increase. Immature regions (except for regions D where semen leaks out, see FIG. 4) were collected by cutting the testes of male salmon. The motilities of sperm from testicular regions A and B were almost zero before treatment with hCG. The motility of sperm from testicular regions C was as low as 1% and the motility of sperm in the mature semen was 100%. After hCG treatment, the motility of sperm from testicular regions A was improved to around 3% whereas the motilities of sperm from testicular regions B and C were increased to 35% and 89%, respectively. […] Regions C of the testes of male salmon caught in a river in October were treated with three different types of hormones: hGC, luteinizing hormone-releasing hormone (LhRH), and DHP. When treated with LhRH and DHP, the motilities of sperm were as low as 5 and 4%, respectively. In contrast, the motility of sperm from the experimental group treated with hCG was as high as 80%, making it possible to produce semen with few impurities (Table 2). Regions C of the testes of male river salmon were diluted with a buffer solution and treated with different concentrations of hCG. The sperm motility was very low (2%) when regions C were untreated, increased steadily with increasing hCG concentration to 50 IU/g, and were ≥82% when treated with hCG at concentrations of 50-200 IU/g (Table 6). There were no differences in the motility of sperm from the untreated control even over time. The motility of sperm from the group treated with 25 IU/g testis increased to a maximum of 73% 1 h after treatment and was as high as 85% from 10 min after treatment. The motilities of sperm from the group treated with 50 IU/g testis were as high as ≥94% at 20-30 min after treatment. […] The motilities of sperm from the groups treated with 100 IU/g testis and 200 IU/g testis began to decrease from 30 min and 20 min after treatment, respectively. That is, the motilities of sperm from the groups treated with 50-200 IU/g testis decreased from when the treatment time exceeded 20 min (Table 7).",
  "note": "“And” between values parts separate entries of the source, which are not always exact repeats. Identical values can stand only once.",
  "data": [
    {"substance": "human chorionic gonadotropin [hCG]", "values": [
      {"measurement": "Sperm motility", "setting": "regions C of male river salmon, hCG at concentrations of 50-200 IU/g", "value": "≥ 82", "unit": "%"},
      {"measurement": "Sperm motility (%)", "setting": "regions C of testes of male salmon caught in a river in October, treated with different types of hormones", "value": "80% and 80 ± 5.2%"},
      {"measurement": "Sperm motility", "setting": "regions C, hCG 50 IU/g testis, at 20-30 min after treatment", "value": "≥ 94", "unit": "%"},
      {"measurement": "Sperm motility (%)", "setting": "regions C, river salmon 2 km upstream, October, hCG 25 IU/g testis, 20 min after treatment", "value": "60 ± 8.5", "unit": "%"},
      {"measurement": "Sperm motility (%)", "setting": "regions C, river salmon 2 km upstream, October, hCG 25 IU/g testis, 30 min after treatment", "value": "70 ± 5.3", "unit": "%"},
      {"measurement": "Sperm motility (%)", "setting": "regions C, river salmon 2 km upstream, October, hCG 25 IU/g testis, 60 min after treatment", "value": "73% and 73 ± 6.7%"},
      {"measurement": "Sperm motility (%)", "setting": "regions C, river salmon 2 km upstream, October, hCG 25 IU/g testis, 120 min after treatment", "value": "65 ± 12.5", "unit": "%"},
      {"measurement": "Sperm motility (%)", "setting": "regions C, river salmon 2 km upstream, October, hCG 50 IU/g testis, 10 min after treatment", "value": "85 ± 6.1", "unit": "%"},
      {"measurement": "Sperm motility (%)", "setting": "regions C, river salmon 2 km upstream, October, hCG 50 IU/g testis, 20 min after treatment", "value": "94 ± 5.3", "unit": "%"},
      {"measurement": "Sperm motility (%)", "setting": "regions C, river salmon 2 km upstream, October, hCG 50 IU/g testis, 30 min after treatment", "value": "95 ± 7.3", "unit": "%"},
      {"measurement": "Sperm motility (%)", "setting": "regions C, river salmon 2 km upstream, October, hCG 50 IU/g testis, 120 min after treatment", "value": "32 ± 11.5", "unit": "%"},
      {"measurement": "Sperm motility (%)", "setting": "regions C, river salmon 2 km upstream, October, hCG 100 IU/g testis, 10 min after treatment", "value": "88 ± 3.9", "unit": "%"},
      {"measurement": "Sperm motility (%)", "setting": "regions C, river salmon 2 km upstream, October, hCG 100 IU/g testis, 20 min after treatment", "value": "92 ± 6.8", "unit": "%"},
      {"measurement": "Sperm motility (%)", "setting": "regions C, river salmon 2 km upstream, October, hCG 100 IU/g testis, 30 min after treatment", "value": "91 ± 5.5", "unit": "%"},
      {"measurement": "Sperm motility (%)", "setting": "regions C, river salmon 2 km upstream, October, hCG 100 IU/g testis, 60 min after treatment", "value": "73 ± 7.6", "unit": "%"},
      {"measurement": "Sperm motility (%)", "setting": "regions C, river salmon 2 km upstream, October, hCG 100 IU/g testis, 120 min after treatment", "value": "12 ± 5.1", "unit": "%"},
      {"measurement": "Sperm motility (%)", "setting": "regions C, river salmon 2 km upstream, October, hCG 200 IU/g testis, 10 min after treatment", "value": "82 ± 7.3% and 82 ± 4.4%"},
      {"measurement": "Sperm motility (%)", "setting": "regions C, river salmon 2 km upstream, October, hCG 200 IU/g testis, 20 min after treatment", "value": "95 ± 4.9", "unit": "%"},
      {"measurement": "Sperm motility (%)", "setting": "regions C, river salmon 2 km upstream, October, hCG 200 IU/g testis, 30 min after treatment", "value": "75 ± 7.6", "unit": "%"},
      {"measurement": "Sperm motility (%)", "setting": "regions C, river salmon 2 km upstream, October, hCG 200 IU/g testis, 60 min after treatment", "value": "52 ± 7.3", "unit": "%"},
      {"measurement": "Sperm motility (%)", "setting": "regions C, river salmon 2 km upstream, October, hCG 200 IU/g testis, 120 min after treatment", "value": "5 ± 7.3", "unit": "%"},
      {"measurement": "Sperm motility (%)", "setting": "regions C, river salmon (2 km upstream from the estuary), after hCG treatment", "value": "80 ± 5.2", "unit": "%"},
      {"measurement": "Sperm motility (%)", "setting": "regions C, river salmon (2 km upstream) caught in December, after hCG treatment", "value": "98 ± 3.8", "unit": "%"},
      {"measurement": "Sperm motility (%)", "setting": "regions C, river salmon (2 km upstream) caught in November, after hCG treatment", "value": "95 ± 4.8", "unit": "%"},
      {"measurement": "Sperm motility (%)", "setting": "regions C, river salmon (2 km upstream) caught in October, after hCG treatment", "value": "97 ± 2.9", "unit": "%"},
      {"measurement": "Sperm motility (%)", "setting": "regions C, river salmon (2 km upstream) caught in September, after hCG treatment", "value": "85 ± 11.3", "unit": "%"},
      {"measurement": "Sperm motility (%)", "setting": "regions C, river salmon caught 1 km from the estuary, after hCG treatment", "value": "85% and 85 ± 4.2%"},
      {"measurement": "Sperm motility (%)", "setting": "regions C, river salmon caught 2 km from the estuary, after hCG treatment", "value": "97% and 97 ± 2.7%"},
      {"measurement": "Sperm motility (%)", "setting": "regions C, river salmon caught 3 km from the estuary, after hCG treatment", "value": "98% and 98 ± 1.8%"},
      {"measurement": "Sperm motility (%)", "setting": "regions C, river salmon caught at distance 0 from the estuary, after hCG treatment", "value": "65% and 65 ± 8.9%"},
      {"measurement": "Motility after treatment (%)", "setting": "testicular region B", "value": "35% and 35 ± 5.6%"},
      {"measurement": "Motility after treatment (%)", "setting": "testicular region C", "value": "89% and 89 ± 7.2%"}
    ]}
  ]
}
